Our source for the inhibition values is PubChem BioAssay AID868 (SRMLSC, 2007).

For orientation: inhibition means the drop in the measured response relative to a control, in per cent.

Structures are written as SMILES. Only a part is listed here, and it is no random draw. Active and inactive are the calls of the source.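 The calls were made as follows: active = inhibition above a set limit, 3 SD over mean compound inhibition (cut at about 8.4% in these data); inactive = the rest.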

The nature of this test: RAM signaling blockers in budding yeast – dse1pr::URA3 reporter, 5-FOA selection, primary screen (AID 868).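 Also: 0% = DMSO-only wells with no growth and 100% = 10 µM 1-NA-PP1 full growth; inhibition rescues growth on 5-FOA so higher OD means more RAM inhibition.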 The following applies: S. cerevisiae dse1pr::URA3 reporter, 5-FOA growth OD615, 2 d; at 50 µM; stronger effect = higher value; analog-sensitive cbk1-as2 kinase mutant strain.
In the case of `O=[N+]([O-])c1cc([N+](=O)[O-])c(NCC2CCS(=O)(=O)C2)c([N+](=O)[O-])c1` (stereo not drawn), the inhibition is inactive: 0.96%.

Consider `CN(C)CCOC(=O)C(O)(c1ccccc1)C1CCCCC1` (stereo not drawn), for which the inhibition was inactive: 0%.

`COc1ccc(NP(C)(=O)Oc2ccccc2OC)cc1` (stereo not drawn): the inhibition was inactive: 1.38%.

As for `COc1ccc(OP(C)(=O)Nc2cccc(Br)c2)cc1` (stereo not drawn), the inhibition is inactive: 0.79%.

Take `Cc1ccccc1NP(C)(=O)Nc1ccccc1C`: the inhibition was inactive: 2.42%.

As to `CP(=O)(Nc1ccc2c(c1)OCCO2)Oc1ccccc1` (stereo not drawn), the inhibition is inactive: -0.11%.

As to `CCOP(C)(=S)SCC(=O)NC(C)(CC)C(=O)O` (stereo not drawn), the inhibition was inactive: 1.44%.

For `O=C(OCCN1CCN(CCOCc2ccccc2)CC1)C(O)(c1ccccc1)c1ccccc1`, the inhibition was inactive: -0.4%.

Regarding `CP(=O)(Nc1ccccc1F)Oc1ccccc1` (stereo not drawn), the inhibition was inactive: 1.5%.

Take `CC(C)c1ccc(OP(C)(=O)Nc2ccc(SC(F)(F)F)cc2)cc1` (stereo not drawn): the inhibition was inactive: 4.31%.

Turning to `CP(=O)(Nc1ccccc1)Oc1ccc(F)cc1` (stereo not drawn), the inhibition is inactive: -0.4%.

For `CCN(CC)CCCOC(=O)C(O)(c1ccccc1)C1CCCCC1` (stereo not drawn), the inhibition is inactive: 3.5%.

In the case of `CCOC(=O)c1ccc(NP(C)(=O)Oc2ccc(F)cc2)cc1` (stereo not drawn), the inhibition is inactive: 1.77%.

Turning to `COc1ccc(OP(C)(=O)Nc2ccc(SC(F)(F)F)cc2)cc1` (stereo not drawn), the inhibition was inactive: -2.21%.

Consider `CP(=O)(Nc1ccc(Cl)cc1Cl)Oc1ccccc1` (stereo not drawn), for which the inhibition is inactive: 1.88%.

`CP(=O)(OCCOc1ccccc1)OCCOc1ccccc1`: the inhibition is inactive: 2.04%.

For `Cc1nc2ccc3ccccc3c2o1.O=[N+]([O-])c1cc([N+](=O)[O-])c(O)c([N+](=O)[O-])c1`, the inhibition was inactive: 1.43%.

In the case of `COc1ccccc1OP(C)(=O)Nc1ccc(C)c(C)c1` (stereo not drawn), the inhibition is inactive: 0.27%.

Consider `COc1ccc(OP(C)(=O)Nc2ccccc2Br)cc1` (stereo not drawn), for which the inhibition is inactive: 0.63%.

With `Cc1cc(C)cc(OP(C)(=O)Nc2cccc(C(F)(F)F)c2)c1` (stereo not drawn), the inhibition was inactive: 2.12%.

Turning to `COc1ccccc1OP(C)(=O)Nc1ccc(C)cc1C` (stereo not drawn), the inhibition was inactive: -1.07%.

Consider `CP(=O)(Nc1ccccn1)Oc1ccccc1` (stereo not drawn), for which the inhibition was inactive: -1.03%.

Consider `CCc1ccc(OP(C)(=O)O)cc1`, for which the inhibition was inactive: 0.92%.

`Cc1c(NP(C)(=O)Oc2ccc(C(C)C)cc2)c(=O)n(-c2ccccc2)n1C` (stereo not drawn): the inhibition was inactive: 0.81%.

With `O=[N+]([O-])c1cc([N+](=O)[O-])c(Nc2ccccn2)c([N+](=O)[O-])c1`, the inhibition is inactive: -0.73%.

For the compound `COc1ccc(OP(C)(=O)Nc2ccccn2)cc1` (stereo not drawn), the inhibition is inactive: 0.44%.

For the compound `CN(C)CCOC(=O)C(O)(c1ccccc1)C1CCCC1` (stereo not drawn), the inhibition is inactive: 2.91%.

With `CN(C)C(=O)c1c([N+](=O)[O-])cc([N+](=O)[O-])cc1[N+](=O)[O-]`, the inhibition is inactive: 0.5%.

Regarding `COc1ccccc1OP(C)(=O)Nc1ccccc1Br` (stereo not drawn), the inhibition was inactive: 0.97%.

On to `CC(C)(C)c1ccc(OP(C)(=O)O)cc1`, for which the inhibition is inactive: 1.5%.

For the compound `CP(=O)(Nc1ccc(Cl)cc1)Oc1ccc(F)cc1` (stereo not drawn), the inhibition is inactive: -0.14%.

On to `CCc1ccc(OP(C)(=O)Nc2cccnc2)cc1` (stereo not drawn), for which the inhibition was inactive: 3.39%.

`CP(=O)(Oc1ccccc1)N1CCOC1=O` (stereo not drawn): the inhibition was inactive: 1.83%.

For the compound `COc1ccc(OP(C)(=O)Nc2ccc(Br)cc2)cc1` (stereo not drawn), the inhibition is inactive: 0.13%.

Turning to `CCN(CC)CC(O)COC(=O)C(O)(c1ccccc1)C1CCCCC1` (stereo not drawn), the inhibition is inactive: 0.26%.

Turning to `CCOC(=O)c1ccc(NP(C)(=O)Oc2ccc(Cl)cc2)cc1` (stereo not drawn), the inhibition is inactive: 0.83%.

For the compound `CP(=O)(Nc1ccccc1Br)Oc1ccccc1` (stereo not drawn), the inhibition is inactive: 1.76%.

On to `COc1ccccc1OP(C)(=O)Nc1ccccc1` (stereo not drawn), for which the inhibition was inactive: 0.13%.

Regarding `CP(=S)(Nn1cnnc1)Oc1ccccc1` (stereo not drawn), the inhibition is inactive: 4.14%.

For the compound `CP(=O)(Nc1ccccn1)Oc1ccc(Cl)cc1` (stereo not drawn), the inhibition was inactive: 0.55%.

`CCOC(=O)c1ccc(NP(C)(=O)Oc2ccc(OC)cc2)cc1` (stereo not drawn): the inhibition was inactive: 0.49%.

`CCOP(C)(=S)SCC(=O)NC(C)C(=O)O` (stereo not drawn): the inhibition is inactive: 1.66%.

As for `Cc1cc(C)cc(OP(C)(=O)Nc2ccc(SC(F)(F)F)cc2)c1` (stereo not drawn), the inhibition was inactive: 4.87%.

As for `CP(=O)(NC(=O)Nc1ccccc1)Oc1ccccc1` (stereo not drawn), the inhibition was inactive: 0.65%.

Take `CP(=O)(Oc1ccccc1)OC(c1ccccc1)C(F)(F)F` (stereo not drawn): the inhibition was inactive: 0.25%.

For `Cc1cccc(C)c1OP(C)(=O)Nc1ccc(SC(F)(F)F)cc1` (stereo not drawn), the inhibition was inactive: 4.54%.

On to `CCN(CC)CCCOC(=O)C(O)(c1ccccc1)c1ccccc1`, for which the inhibition was inactive: -0.25%.

Turning to `Cc1cc(C)cc(OP(C)(N)=O)c1` (stereo not drawn), the inhibition is inactive: -0.38%.

For `COc1ccc(OP(C)(=O)Nc2cccc(F)c2)cc1` (stereo not drawn), the inhibition is inactive: 0.67%.

On to `COc1ccccc1OP(C)(=O)Nc1cc(Cl)ccc1C` (stereo not drawn), for which the inhibition is inactive: -1.25%.

Turning to `Cc1ccc(NP(C)(=O)Oc2ccccc2)c(C)c1` (stereo not drawn), the inhibition was inactive: 2.02%.

As to `COc1ccccc1OP(C)(=O)Nc1ccc(C)cc1` (stereo not drawn), the inhibition is inactive: 0.46%.

Take `CCOC(=O)c1ccc(NP(C)(=O)Oc2ccccc2)cc1` (stereo not drawn): the inhibition is inactive: 0.26%.

As for `O=[N+]([O-])c1ccc2c(c1)C=Nc1ccccc1O2`, the inhibition is inactive: 1.38%.

As to `Cc1cccc(C)c1OP(C)(N)=O` (stereo not drawn), the inhibition was inactive: -1.02%.

On to `CC(C)(C)c1ccc(OP(C)(=O)Nc2ccc(SC(F)(F)F)cc2)cc1` (stereo not drawn), for which the inhibition was active: 8.96%.

As to `CC1=NCCc2c1[nH]c1ccccc21.O=[N+]([O-])c1cc([N+](=O)[O-])c(O)c([N+](=O)[O-])c1`, the inhibition is inactive: 0.75%.

As to `Cc1ccc(C)c(NP(C)(=O)Oc2ccccc2)c1` (stereo not drawn), the inhibition was inactive: 1.55%.

In the case of `Cc1cc(C)cc(OP(C)(=O)Nc2ccccn2)c1` (stereo not drawn), the inhibition was inactive: 0.56%.

For `CP(=O)(Nc1cccc(Br)c1)Oc1ccccc1` (stereo not drawn), the inhibition is inactive: 3.26%.

Take `CCOC(=O)c1ccc(NP(C)(=O)Oc2cc(C)cc(C)c2)cc1` (stereo not drawn): the inhibition is inactive: 2.71%.

Turning to `Cc1cc(C)cc(OP(C)(=O)Nc2ccc(C)cc2C)c1` (stereo not drawn), the inhibition was inactive: -0.71%.

In the case of `Cc1nc2ccc3ccccc3c2s1.O=[N+]([O-])c1cc([N+](=O)[O-])c(O)c([N+](=O)[O-])c1`, the inhibition was inactive: 0.81%.

Consider `O=[N+]([O-])c1cc([N+](=O)[O-])c(-n2nnc3ccccc32)c([N+](=O)[O-])c1`, for which the inhibition is inactive: 3.83%.

`CCCOc1ccc(NP(C)(=O)Oc2ccc(Cl)cc2)cc1` (stereo not drawn): the inhibition is inactive: -0.81%.

Turning to `CP(=O)(Nc1ccc(SC(F)(F)F)cc1)Oc1ccccc1` (stereo not drawn), the inhibition is inactive: 0%.

With `CN1CCCCC1COC(=O)C1(O)c2ccccc2CCc2ccccc21` (stereo not drawn), the inhibition is inactive: -0.13%.

As to `COc1ccccc1OP(C)(=O)Nc1c(C)cccc1C` (stereo not drawn), the inhibition was inactive: -0.13%.
